Literature values as cited in US8937052B2, “Therapeutic protocols using hyaluronan” (Alchemia Oncology Pty Limited, priority 2005, dated 2015).
Where a name gives a salt, the structure may show the parent alone.

Conditions: Historical Comparator Publication 4; CPT-11 350 mg/m^2, […] infusion; cited from earlier work

CCc1c2c(nc3ccc(OC(=O)N4CCC(N5CCCCC5)CC4)cc13)-c1cc3c(c(=O)n1C2)COC(=O)[C@]3(O)CC [CPT-11, Irinotecan hydrochloride]
CPT-11 AUCtotal: 20500 ± 7100 ng·h/mL
